Measurements from paper PMC7036909, “Discovery of Selective SIRT2 Inhibitors as Therapeutic Agents in B-Cell Lymphoma and Other Malignancies” (Molecules, 2020).

Target: T1, SIRT2 (Homo sapiens, UniProt Q8IXJ6)
T1 sequence (Q8IXJ6 1-389): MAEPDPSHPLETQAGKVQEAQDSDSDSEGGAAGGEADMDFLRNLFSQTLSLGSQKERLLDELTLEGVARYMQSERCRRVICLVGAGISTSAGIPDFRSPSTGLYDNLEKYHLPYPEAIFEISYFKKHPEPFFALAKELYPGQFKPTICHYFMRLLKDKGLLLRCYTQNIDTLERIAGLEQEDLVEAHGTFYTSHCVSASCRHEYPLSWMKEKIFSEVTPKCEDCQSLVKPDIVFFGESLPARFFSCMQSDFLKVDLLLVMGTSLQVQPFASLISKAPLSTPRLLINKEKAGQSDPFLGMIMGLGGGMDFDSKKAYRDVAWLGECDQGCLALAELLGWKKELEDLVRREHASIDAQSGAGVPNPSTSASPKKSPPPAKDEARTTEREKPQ
Test: SIRT-Glo enzyme inhibition assay, SIRT2
Conditions: read-out: SIRT2 percentage inhibition at 50 µM compound

O=c1[nH]c(=S)[nH]c(-c2ccccc2)c1Cc1c(O)ccc2ccccc12 [Compound 1, cambinol, reference compound]
inhibition at 50 µM: 46%
